Results from patent US6255347A, “Methods and compositions comprising R-ibuprofen” (priority 1997, dated 2001).

Key:
neutrophil = conditions: induced by PMA in vitro; cited from earlier work
APPs [1] = conditions: 10 mg/kg P.O. bid, 7 days; for Density of APP Bands, Cytosol: n = 4 mean ± S.D.
APP = conditions: 10 mg/kg P.O. bid, 7 days; n = 4 mean ± S.D.
[2] = test system: APPs secretion by NIH 3T3 cell lines; conditions: 50 μM, 20 h culture, n = 2, mean ± S.D.
PKC βII = conditions: for rat brain PKC βII content (in words): 7 days of treatment; for Density of PKC βII Bands: membrane fraction, 10 mg/kg bid 7 days, n = 4 mean ± S.D.
PKC α [3] = conditions: for rat brain PKC α content (in words): 7 days of treatment; for Density of PKC α Bands: membrane fraction, 10 mg/kg bid 7 days, n = 4 mean ± S.D.
APPs [4] = conditions: for APPs secretion in rat CSF (in words) / Density of APP Bands, CSF: 10 mg/kg P.O. bid, 7 days; for Density of APP Bands, CSF: n = 4 mean ± S.D.
PKC ε = conditions: cytosolic or membranous fractions
PKC .xi. = conditions: cytosolic or membranous fractions
PKC = biological target: T1, PKC (Rattus norvegicus, UniProt P05696); test: Protein kinase C activity assay (histone phosphorylation, partially purified rat brain PKC); format: biochemical; conditions: read-out: maximal inhibition of PKC activity, PMA stimulated
T1 construct: Partially purified PKCα from rat brain; purchased Promega (Madison, Wis.); host or cells: rat brain (tissue enzyme, partially purified)
Description: (-)-R-ibuprofen and (+)-S-ibuprofen (optical purity >99%) were obtained from Sepracor Inc. (Marlborough, Mass.). The following were obtained from the Sigma Chemical Co. (St. […] Anti-PKCα antibody (affinity purified) and its C-terminal region peptide was obtained from Life Technologies (Gaithersburg, Md.). […] All other chemicals were of the highest available purity and were obtained from standard commercial sources. The assay for PKC activity was carried out essentially as described by Boyle et al.(1991) by quantifying the phosphorylation of histone in the presence of phoshatidylserine and PMA, with or without ibuprofen. […] Following 2 min initial incubation at 30° C., kinase reactions were initiated by the addition of ^32 P-γ-ATP and enzyme and continued at 30° C. for 2 min. Control incubations contained all assay components except enzyme and ibuprofen. […] All samples were carried out in duplicate.

PKC α [5] = conditions: inventors' previous study
PKC γ = conditions: cytosolic or membranous fractions
APPs (105 kDa) = APPs (105 kDa) in human blood; format: in vivo
PKCα = PKCα translocation in NIH 3T3 cells (subcellular fractionation, Western blot); format: cell-based; conditions: 10 μg/ml; 30 min, 4 hours and 2 weeks
PKC θ = conditions: cytosolic or membranous fractions
[6] = oral; cited from earlier work
[7] = post 7 days dose (800 mg, tid), 0 hour, n = 4, mean ± S.D.

Row | Compound | blocking of PKC dependent neutrophil respiratory burst (neutrophil) | Density of APP Bands, Cytosol (APPs [1]) | Density of APP Bands, Membrane (APP) | Density of APPs band [2] | rat brain PKC βII content (in words) (PKC βII) | Density of PKC βII Bands (PKC βII) | rat brain PKC α content (in words) (PKC α [3]) | Density of PKC α Bands (PKC α [3]) | APPs secretion in rat CSF (in words) (APPs [4]) | Density of APP Bands, CSF (APPs [4]) | effect on PKC ε content (PKC ε) | effect on PKC .xi. content (PKC .xi.) | inhibition at 20 µM (PKC) | translocation of PKC α from human platelet cytosol to membrane fractions (PKC α [5]) | effect on PKC γ content (PKC γ) | human blood APPs (105 kDa) (APPs (105 kDa); [7]) | reduction of PMA induced cytosol to membrane PKCα translocation (PKCα) | effect on PKC θ content (PKC θ) | other results
1 | CC(C)Cc1ccc([C@H](C)C(=O)O)cc1 [S-ibuprofen] | blocking the PKC dependent neutrophil respiratory burst | 10.29 ± 5.75 | 3.99 ± 1.39 | 6.83 ± 0.31 | not significantly | 5.99 ± 3.96 | not significantly | 16.58 ± 4.44 | dramatically increased APPs secretion | 11.91 ± 6.42 | did not show a dramatic effect | did not show a dramatic effect | 62% | did not | did not show a dramatic effect | 0.96 | reduced | did not show a dramatic effect | human blood APPs (105 kDa) (APPs (105 kDa); 1st dose (800 mg), 0 hour (before dose), n = 4, mean ± S.D.): 1.76; duration of increased APPs (105 kDa) secretion (APPs (105 kDa); after 7 days dosing, 800 mg t.i.d. oral): 1 days; human blood APPs (105 kDa) (APPs (105 kDa); post 1st dose (800 mg), 1 hour, n = 4, mean ± S.D.): 2.53; human blood APPs (105 kDa) (APPs (105 kDa); post 1st dose (800 mg), 3 hours, n = 4, mean ± S.D.): 2.29; human blood APPs (105 kDa) (APPs (105 kDa); post 7 days dose (800 mg, tid), 1 hour, n = 4, mean ± S.D.): 2.61; human blood APPs (105 kDa) (APPs (105 kDa); post 7 days dose (800 mg, tid), 1 day, n = 4, mean ± S.D.): 2.98; duration of increased APPs (105 kDa) secretion (APPs (105 kDa); single oral 800 mg dose): 0.12 days
2 | O=C(O)CCCc1ccc(N(CCCl)CCCl)cc1 [Chlorambucil, 4-[bis(2-chlorethyl)amino]benzenebutanoic acid] |  |  |  |  |  |  |  |  |  |  |  |  |  |  |  |  |  |  | absorption (in words) [6]: rapidly and completely absorbed
3 | CC(C)Cc1ccc(C(C)C(=O)O)cc1 (racemic) [RS-ibuprofen] |  |  | 4.65 ± 1.17 |  |  |  |  |  |  |  |  |  | 59% |  |  | 2.46 |  |  | human blood APPs (105 kDa) (APPs (105 kDa); post 1st dose (800 mg), 8 hours, ND = Not detectable): 2.47; human blood APPs (105 kDa) (APPs (105 kDa); post 1st dose (800 mg), 12 hours, ND = Not detectable): 2.125; human blood APPs (105 kDa) (APPs (105 kDa); post 1st dose (800 mg), 24 hours, ND = Not detectable): 2.25; human blood APPs (105 kDa) (APPs (105 kDa); post 7 days dose (800 mg, tid), 7 days, ND = Not detectable): 3.21
4 | CC(C)Cc1ccc([C@@H](C)C(=O)O)cc1 [R-ibuprofen] | blocking the PKC dependent neutrophil respiratory burst | 11.51 ± 5.89 | 4.85 | 8.34 ± 0.88 | dramatically | 9.69 ± 2.19 | dramatically | 18.41 ± 3.46 | significantly greater than that of the racimate and S-enantiomer | 19.48 ± 8.31 | did not show a dramatic effect | did not show a dramatic effect |  | complete translocation | did not show a dramatic effect |  | reduced | did not show a dramatic effect | content of cytosolic APPs of rat brain (in words) (APPs [1]): more potent than racemic or S-ibuprofen; activity in the secretion of APPs versus racemic and S-ibuprofen (APPs [4]; summary statement): significantly more active than the currently employed racemic ibuprofen and S-ibuprofen
